Sampled rows, rich in hits. Any-hit rate of the full collection: about 4.2%.
MC4R barr agon = human MC4R agonism via beta-arrestin. activation, % at 8.9 µM. AID 540308. U2OS MC4R beta-arrestin complementation, luminescence; percent of melanotan II response, DMSO zero. 360,000 tested, 0.98% active. P32245;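 active means activation above a per-plate cutoff, the mean activation of sample wells on that plate plus 3 SD, cut at about 8% in these data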
Yeast UUG start = modulators of yeast start codon fidelity, primary screen, whole organism, S. cerevisiae, single point, plate reader | AID 602363, 2012 | S. cerevisiae UUG-firefly luciferase reporter, luminescence/redox ratio | activity score, % at 18.7 µM | hit rate 0.13% among 350,000;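 active = replicate mean at a twofold rise or more, about +100% in these data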;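 also: firefly luciferase made from a UUG start codon reports start codon fidelity; reporter light over untreated wells divided by growth signal over untreated wells; some hits fall short of that in this replicate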
ALR inh = human ALR oxidase inhibition via reduced H2O2. P55789. purified ALR, DTT oxidation, H2O2 HRP-luminol luminescence. inhibition, % (no concentration beside the values). 3.8% of 290,000 active. AID 485317;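 active means mean and each replicate at 75% or more; inconclusive means only one of the two met; inactive means neither met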;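 further: stock transfer was 7.5 nL into about 7.5 µL; 0% = neutral wells and 100% = wells with inactivated enzyme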
MC4R antagonist = human MC4R antagonism in cAMP assay; MC4R-expressing cells, MTII-stimulated cAMP, LANCE TR-FRET; inhibition, % at 6.5 µM; 360,000 tested, 0.48% active; AID 540295;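 active means inhibition above its plate's cutoff, the mean of tested wells on that plate plus 3 SD, cut at about 29% in these data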;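 further: 0% = Melanotan II alone and 100% = Melanotan II plus saturating MCL0020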
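Material: U2OS-MC4R stable cell line | Reagent: Melanotan II challenge after compound preincubation | Doses: One concentration, 6.5 µM nominal | Incubation: 30-min compound preincubation, 1-h Melanotan II challenge, 1-h detection, room temperature | Signal: TR-FRET cAMP assay | Replicates: One well per compound, no replicates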
NALP1 inh = NALP1 inhibition; 280,000 tested, 0.61% active; inhibition, % at 10 µM; S. cerevisiae NALP1/ASC/caspase-1 growth, X-gal OD620, 72 h; AID 2071; in the data active means inhibition mostly above about 24%, no sharp cut-off; inactive means mostly below about 32%
HDAC3 inhib = inhibitors of human histone deacetylase 3 | O15379 | recombinant HDAC3, fluorogenic peptide/trypsin coupled, fluorescence | 320,000 tested, 0.15% active | inhibition, % at 8.3 µM | AID 2718; in the data active means inhibition above about 26%, passing the limit was not always enough
MC4R barr conf = human MC4R beta-arrestin agonism confirmation | 2,400 tested, 31% active | shares compounds with MC4R barr agon | AID 602192 | U2OS MC4R beta-arrestin recruitment, luminescence; scaled DMSO 0%, Melanotan II 100% | activation, % at 8.9 µM;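 active means mean activation across replicates above the hit cutoff set in the earlier primary screen, cut at about 8% in these data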
MOR-DOR barr ag = counter-screen for MC4R agonists: agonists of mu-delta opioid heterodimer. shares compounds with MC4R barr agon. U2OS PathHunter beta-arrestin, beta-gal luminescence; percent of deltorphin B response, DMSO zero. activation, % at 9.2 µM. 2,400 tested, 5.8% active. AID 602194;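 active means mean activation across replicates exceeds the hit threshold derived in the earlier primary screen, cut at about 18% in these data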;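 further: 100% = deltorphin B at 0.9 µM final and 0% = DMSO alone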
* hit, by the source's call; / = not tested or not shown.

Assay codes: A = MC4R barr agon; B = Yeast UUG start; C = ALR inh; D = MC4R antagonist; E = NALP1 inh; F = HDAC3 inhib; G = MC4R barr conf; H = MOR-DOR barr ag
> CCCN1[C@@H]2c3ccc(-c4cccc(F)c4)c(=O)n3C[C@H]1[C@H](CO)[C@H]2C(=O)NCC
  A = /	B = 2.2	C = /	D = /	E = /	F = /	G = /	H = /

> N#Cc1ccccc1NC(=O)c1ccc(-c2ccccc2Cl)o1
  A = 21.7*	B = -11.0	C = 0.6	D = 1.4	E = 23.2	F = 6.0	G = 7.2	H = 6.0

> Cn1c(SCC(=O)Nc2cc(Cl)cc(Cl)c2)nnc1-c1ccc2nonc2c1
  A = 35.8*	B = -22.0	C = 4.2	D = -6.3	E = /	F = 1.8	G = 7.8	H = 8.0

> Cc1cc(-c2nc(C)c(-c3nnc(SCC(=O)Nc4cc(Cl)cc(Cl)c4)n3C)s2)no1
  A = -3.1	B = /	C = -3.7	D = 2.8	E = 11.0	F = 9.9	G = /	H = /

> Cc1onc(-c2ccccc2)c1C(=O)Nc1nc(-c2cc(F)ccc2F)cs1
  A = 33.8*	B = -27.5	C = 5.9	D = -6.0	E = -13.1	F = -4.1	G = 7.6	H = 5.6

> CSc1ccc(CN2CCc3c([nH]c4ccccc34)C2)cc1
  A = 10.8*	B = -6.4	C = -7.2	D = 0.6	E = 30.8	F = -9.6	G = 2.8	H = 7.7

> Clc1cccc(CN2CCc3c([nH]c4ccccc34)C2)c1
  A = -0.2	B = -3.5	C = 0.5	D = 5.9	E = 28.0	F = -3.4	G = /	H = /

> Clc1ccc(CN2CCc3c([nH]c4ccccc34)C2)cc1Cl
  A = 14.9*	B = -13.6	C = 2.9	D = 8.3	E = 26.9	F = 4.8	G = 45.4*	H = 23.1*

> O=C(C[C@@H]1CC[C@H]2[C@@H](COC[C@H](O)CN2C(=O)C2CCCC2)O1)NCc1ccncc1
  A = /	B = -1.6	C = /	D = /	E = /	F = /	G = /	H = /

> C[C@@H]1CN([C@H](C)CO)C(=O)c2cc(-c3cccc(C#N)c3)cnc2O[C@@H]1CN(C)C(=O)c1ccccn1
  A = /	B = -4.5	C = /	D = /	E = /	F = /	G = /	H = /

> Cc1ccc(S(=O)(=O)N(C)C[C@H]2Oc3ccc(NS(=O)(=O)c4c(C)noc4C)cc3CC(=O)N([C@@H](C)CO)C[C@@H]2C)cc1
  A = /	B = 15.9	C = /	D = /	E = /	F = /	G = /	H = /

> CCOC(=O)c1oc2ccc(S(=O)(=O)N3CCC(C)CC3)cc2c1C
  A = 12.6*	B = /	C = -4.2	D = 4.5	E = 17.6	F = 1.0	G = -1.3	H = 5.4

> Cc1ccc(S(=O)(=O)N2CCCN(C)CC2)cc1
  A = -0.7	B = -1.0	C = -6.3	D = 12.5	E = 12.0	F = -2.4	G = /	H = /

> Cc1ccc(S(=O)(=O)N2CCCN(S(=O)(=O)c3ccc(C(F)(F)F)cc3)CC2)cc1
  A = 28.2*	B = -9.5	C = -2.9	D = -12.1	E = -1.2	F = -1.5	G = 14.5*	H = 30.4*

> C[C@@H]1CN([C@@H](C)CO)S(=O)(=O)c2ccc(C#Cc3ccccn3)cc2O[C@@H]1CN(C)CC1CC1
  A = /	B = -13.3	C = /	D = /	E = /	F = /	G = /	H = /

> CC(C)(C)c1ccc(S(=O)(=O)NNC(=O)c2cc3ccccc3[nH]2)cc1
  A = 16.7*	B = -10.7	C = 27.2	D = 9.6	E = 18.8	F = 6.1	G = 7.7	H = 15.9

> CCOc1ccc(OCCSc2nc3ccccc3c(=O)[nH]2)cc1
  A = 9.6*	B = -17.2	C = -3.6	D = 1.1	E = -13.0	F = 0.0	G = 0.3	H = 6.9

> O=c1[nH]c(SCCOc2cccc3ccccc23)nc2ccccc12
  A = 10.4*	B = /	C = -24.1	D = 26.0	E = 25.0	F = 1.3	G = -0.2	H = 3.8

> CCOc1ccc(OCCSc2nc(C)cc(=O)[nH]2)cc1
  A = -1.1	B = -24.5	C = 0.1	D = 3.4	E = 2.0	F = -4.5	G = /	H = /

> CCCC#Cc1ccc2c(c1)O[C@H](CN(C)Cc1ccncc1)[C@H](C)CN([C@H](C)CO)S2(=O)=O
  A = /	B = -9.0	C = /	D = /	E = /	F = /	G = /	H = /

> CCNC(=O)C[C@@H]1CC[C@H]2[C@H](COc3ccc(NC(=O)c4ccc(F)cc4)cc3C(=O)N2C)O1
  A = /	B = 2.7	C = /	D = /	E = /	F = /	G = /	H = /

> C[C@H](CO)N1C[C@H](C)[C@H](CN(C)C(=O)Cc2ccccn2)Oc2ncc(-c3ccccc3)cc2C1=O
  A = /	B = -16.5	C = /	D = /	E = /	F = /	G = /	H = /

> COC(=O)c1cccc(Nc2nc3ccccc3nc2C)c1
  A = -1.8	B = -7.4	C = -4.2	D = 7.6	E = -16.7	F = 8.8	G = /	H = /

> COC(=O)c1cc(Nc2cc(C)c3c(O)cccc3n2)cc(C(=O)OC)c1
  A = 11.7*	B = /	C = -14.7	D = 11.6	E = /	F = /	G = 6.9	H = 8.4

> N#Cc1ccsc1NC(=O)COC(=O)c1ccc2ccccc2c1
  A = 17.1*	B = /	C = -23.1	D = 14.6	E = 13.3	F = 4.8	G = 3.8	H = 4.0

> CC(C)(C)c1ccc(C(=O)O/N=C(\N)c2ccccc2)cc1
  A = 15.9*	B = -58.3	C = -0.4	D = 7.4	E = 24.4	F = -2.1	G = 8.4*	H = 11.9

> C/C(=N/NS(C)(=O)=O)c1ccc2ccccc2c1
  A = -0.3	B = -23.9	C = /	D = 1.4	E = -10.2	F = -1.2	G = /	H = /

> C/C(=N\NC(=O)Nc1ccccc1)c1ccc2ccccc2c1
  A = 20.7*	B = -13.6	C = -14.6	D = -0.5	E = 24.7	F = 2.7	G = 3.8	H = 6.5

> C/C(=N/NC(=O)Nc1ccccc1)c1ccc(C)cc1
  A = 10.8*	B = -7.5	C = -4.9	D = 1.9	E = 38.6	F = -7.0	G = -1.2	H = 2.7

> O=C(/C=C/c1cccs1)Nc1ccc([N+](=O)[O-])cc1
  A = -3.5	B = /	C = 6.5	D = -6.1	E = 9.8	F = 4.7	G = /	H = /

Whole records, looked up by structure:
Cc1cc(-c2nc(C)c(-c3nnc(SCC(=O)Nc4cc(Cl)cc(Cl)c4)n3C)s2)no1 is listed as MC4R barr agon: -3.1; Yeast UUG start: /; ALR inh: -3.7; MC4R antagonist: 2.8; NALP1 inh: 11.0; HDAC3 inhib: 9.9; MC4R barr conf: /; MOR-DOR barr ag: /
O=C(/C=C/c1cccs1)Nc1ccc([N+](=O)[O-])cc1 is listed as MC4R barr agon: -3.5; Yeast UUG start: /; ALR inh: 6.5; MC4R antagonist: -6.1; NALP1 inh: 9.8; HDAC3 inhib: 4.7; MC4R barr conf: /; MOR-DOR barr ag: /

Continued:
canonical_smiles | MC4R barr agon | Yeast UUG start | ALR inh | MC4R antagonist | NALP1 inh | HDAC3 inhib | MC4R barr conf | MOR-DOR barr ag
O=C(/C=C/c1cccs1)c1ccc([N+](=O)[O-])cc1 | 10.9* | / | -5.2 | 6.1 | 42.8* | 6.1 | 1.1 | 7.1
CNC[C@H]1OCCCC[C@H](C)Oc2ccc(N(C)C)cc2C(=O)N([C@H](C)CO)C[C@@H]1C | / | 42.8 | / | / | / | / | / | /
COc1ccc(Sc2nnc(-c3ccccc3)cc2C#N)cc1 | 1.5 | -3.4 | 0.3 | -10.8 | 43.9 | 8.8 | / | /
Cc1ccc(Sc2nnc(-c3ccccc3)cc2C#N)cc1 | 13.0* | / | -25.5 | 4.1 | 6.2 | -0.1 | 2.8 | 5.6
O=C(C[C@H]1C[C@H]2c3cc(NC(=O)Nc4ccc(C(F)(F)F)cc4)ccc3O[C@H]2[C@@H](CO)O1)NCc1ccccn1 | / | -14.0 | / | / | / | / | / | /
NC(c1ccccc1)c1csc(NC(=O)Nc2ccccc2Oc2ccccc2)n1 (stereo not drawn) | 23.4* | -12.0 | / | -3.6 | / | / | 35.1* | 13.4
NC(Cc1ccccc1)c1csc(NC(=O)Nc2ccccc2Oc2ccccc2)n1 (stereo not drawn) | 5.1 | -27.0 | / | 5.2 | / | / | / | /
COc1ccc(CC(N)c2csc(NC(=O)Nc3ccccc3Oc3ccccc3)n2)cc1 (stereo not drawn) | 12.1* | 9.6 | / | 8.5 | / | / | 7.6 | 21.1*
COc1ccccc1CNC(=O)Nc1nc(C(N)Cc2ccc(Cl)cc2)cs1 (stereo not drawn) | 25.5* | -8.8 | / | 5.6 | / | / | 40.2* | 23.4*
COc1ccc(NC(=O)Nc2nc(C(N)Cc3ccc(C(F)(F)F)cc3)cs2)cc1 (stereo not drawn) | 32.9* | -12.4 | / | 4.1 | / | / | 28.3* | 17.7
COCC(=O)N1C[C@H](C)[C@H](OC)CN(C)C(=O)c2cc(NC(=O)NC(C)C)ccc2OC[C@@H]1C | / | -1.6 | / | / | / | / | / | /
Cc1ccc(C(=O)Nc2nc(C(N)Cc3ccc(C(F)(F)F)cc3)cs2)cc1 (stereo not drawn) | 10.8* | -15.6 | / | 8.3 | / | / | 24.5* | 10.8

Structural class, those above containing a furan ring, fused or not.
canonical_smiles | MC4R barr agon | Yeast UUG start | ALR inh | MC4R antagonist | NALP1 inh | HDAC3 inhib | MC4R barr conf | MOR-DOR barr ag
N#Cc1ccccc1NC(=O)c1ccc(-c2ccccc2Cl)o1 | 21.7* | -11.0 | 0.6 | 1.4 | 23.2 | 6.0 | 7.2 | 6.0
CCOC(=O)c1oc2ccc(S(=O)(=O)N3CCC(C)CC3)cc2c1C | 12.6* | / | -4.2 | 4.5 | 17.6 | 1.0 | -1.3 | 5.4
